In ChEMBL document CHEMBL1146670, “Structure based design of a series of potent and selective non peptidic PTP-1B inhibitors” (Bioorg Med Chem Lett, 2004):

Biological target: T1, Tyrosine-protein phosphatase non-receptor type 1 (Homo sapiens, UniProt P18031)
T1 sequence (P18031 whole entry): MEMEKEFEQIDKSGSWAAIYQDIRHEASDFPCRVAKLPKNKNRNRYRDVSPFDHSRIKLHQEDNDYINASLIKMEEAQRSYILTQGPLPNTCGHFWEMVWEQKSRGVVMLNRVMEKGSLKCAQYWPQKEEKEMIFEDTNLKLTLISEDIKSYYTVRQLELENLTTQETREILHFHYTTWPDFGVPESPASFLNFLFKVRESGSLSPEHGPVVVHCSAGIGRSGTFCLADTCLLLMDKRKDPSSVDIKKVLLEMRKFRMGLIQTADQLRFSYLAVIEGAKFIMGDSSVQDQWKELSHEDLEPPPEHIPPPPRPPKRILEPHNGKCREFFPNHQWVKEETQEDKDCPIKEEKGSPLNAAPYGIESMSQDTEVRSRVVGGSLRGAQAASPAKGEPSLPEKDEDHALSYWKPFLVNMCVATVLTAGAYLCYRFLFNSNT
Assay: Inhibitory activity against Protein tyrosine phosphatase 1B (PTP1B) over-expressed in intact Sf9 cell assay

IC50: 240 nM
Compound: O=P(O)(O)c1cccc(-c2ccc(CC(Cc3ccc(C(F)(F)P(=O)(O)O)cc3)(c3ccccc3)n3nnc4ccccc43)cc2)c1 (stereo unspecified)
